The values below come from ChEMBL document CHEMBL5344480, “Synthesis and bioactivity of psilocybin analogues containing a stable carbon-phosphorus bond” (RSC Med Chem, 2024).

Amino acid sequences for entries named in this document (tags omitted).
UniProt P41595, whole entry: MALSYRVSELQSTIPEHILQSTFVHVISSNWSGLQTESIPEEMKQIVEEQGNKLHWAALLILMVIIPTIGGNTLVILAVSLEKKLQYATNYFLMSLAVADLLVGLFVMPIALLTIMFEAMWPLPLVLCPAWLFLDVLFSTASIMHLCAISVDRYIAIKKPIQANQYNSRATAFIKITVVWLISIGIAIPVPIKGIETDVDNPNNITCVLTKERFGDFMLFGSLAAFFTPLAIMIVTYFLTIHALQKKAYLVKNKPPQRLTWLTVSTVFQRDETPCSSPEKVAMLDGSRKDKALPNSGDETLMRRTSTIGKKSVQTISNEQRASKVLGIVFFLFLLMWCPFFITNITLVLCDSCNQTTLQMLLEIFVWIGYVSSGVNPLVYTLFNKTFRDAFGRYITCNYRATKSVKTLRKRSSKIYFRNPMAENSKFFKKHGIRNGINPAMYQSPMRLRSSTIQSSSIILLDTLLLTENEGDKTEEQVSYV

For this assay, the target named is 5-hydroxytryptamine receptor 2B (Homo sapiens, UniProt P41595).

`CN(C)CCc1c[nH]c2cccc(O)c12` [PSILOCIN]: the Ki (as a rule, the dissociation constant of the complex between target and ligand, obtained from inhibition or displacement) was found to be 4.6 nM.

In the case of `CN(C)CCc1c[nH]c2cccc(OP(=O)(O)O)c12` [PSILOCYBIN], affinity was put at a Ki of 98.7 nM.
